Values of other authors in patent US20120283283A1, “METHODS FOR DETECTING ENHANCED RISK OF OPIOID-INDUCED HYPOXIA IN A PATIENT” (priority 2011, published 2012).

Tested on: subjects with normal baseline oxygen saturation levels
Conditions: 2 mg intravenously in a 2-3 minute period; cited from earlier work

CN1CC[C@]23c4c5ccc(O)c4O[C@H]2C(=O)CC[C@H]3[C@H]1C5 [hydromorphone]
subjects with recorded oxygen saturation levels of less than 90%: 6%
